Source: patent US10214520B2, “Substituted azaspiro(4.5)decane derivatives” (priority 2014, dated 2019)

Amino acid sequences for entries named in this document (tags omitted). A change or cut given only in a name is not applied to a line headed by its entry.
UniProt P35372, whole entry, looked up: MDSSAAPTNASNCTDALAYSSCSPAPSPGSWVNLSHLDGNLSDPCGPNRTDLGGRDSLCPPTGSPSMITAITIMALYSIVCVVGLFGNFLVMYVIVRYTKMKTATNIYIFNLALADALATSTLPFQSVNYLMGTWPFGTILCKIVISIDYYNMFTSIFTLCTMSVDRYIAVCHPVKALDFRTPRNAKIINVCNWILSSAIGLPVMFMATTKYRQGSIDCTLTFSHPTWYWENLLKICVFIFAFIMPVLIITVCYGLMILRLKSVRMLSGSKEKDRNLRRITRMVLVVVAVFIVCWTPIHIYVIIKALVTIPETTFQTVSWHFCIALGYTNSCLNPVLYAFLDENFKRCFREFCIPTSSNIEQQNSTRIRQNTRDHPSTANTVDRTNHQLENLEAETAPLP
UniProt P41146: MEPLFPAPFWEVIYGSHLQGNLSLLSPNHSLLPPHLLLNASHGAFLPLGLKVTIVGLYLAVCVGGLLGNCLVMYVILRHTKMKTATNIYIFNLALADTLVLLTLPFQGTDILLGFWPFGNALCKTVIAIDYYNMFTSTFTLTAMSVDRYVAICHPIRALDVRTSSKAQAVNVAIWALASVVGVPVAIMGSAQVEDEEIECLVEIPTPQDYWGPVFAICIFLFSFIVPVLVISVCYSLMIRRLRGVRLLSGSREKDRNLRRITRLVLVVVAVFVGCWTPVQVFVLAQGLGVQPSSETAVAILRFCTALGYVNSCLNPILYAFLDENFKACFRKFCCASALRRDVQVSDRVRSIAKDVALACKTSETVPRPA

Assays:
human μ opiate receptor = human μ opiate receptor (Homo sapiens, UniProt P35372); test: μ opiate receptor binding assay with [3H]-naloxone, membrane preparation of CHO-K1 cells (WGA-SPA beads); conditions: for MOP % Inhibition @1 μM / % inhibition (μ) [1 μM]: test concentration 1 μM
ORL1 receptor = ORL1 receptor (Homo sapiens, UniProt P41146); conditions: for ORL1 % Inhibition @ 1 μM / % inhibition (ORL1) [1 μM]: test concentration 1 μM
[1] = read-out: Ki (μ) mean [μm], mean
[2] = read-out: Ki (ORL1) mean [μm], mean

Compound | Ki (human μ opiate receptor; read-out: MOP Ki) | MOP % Inhibition @1 μM (human μ opiate receptor) | Ki (ORL1 receptor; read-out: ORL1 Ki) | ORL1 % Inhibition @ 1 μM (ORL1 receptor) | other results
CN(C)[C@]1(c2ccccc2)CC[C@]2(CC1)CC(=O)N(CCCC(=O)O)C2 | 1990 nM | 42% | 1280 nM | 13% | –
CN(C)[C@]1(c2ccccc2)CC[C@]2(CC1)CC(=O)N(CC(=O)O)C2 | 697 nM | – | 753 nM | – | Ki (human μ opiate receptor; read-out: MOP Ki, hydrochloride): 1680 nM; MOP % Inhibition @1 μM (human μ opiate receptor; 1 µM): 58%; MOP % Inhibition @1 μM (human μ opiate receptor; hydrochloride, 1 µM): 31%; Ki (ORL1 receptor; read-out: ORL1 Ki, hydrochloride): 1130 nM; ORL1 % Inhibition @ 1 μM (ORL1 receptor; 1 µM): 34%; ORL1 % Inhibition @ 1 μM (ORL1 receptor; hydrochloride, 1 µM): 27%
CN(C)[C@]1(c2ccccc2)CC[C@]2(CC1)CC(=O)N(CCC(C)(C)C(=O)NCCC(C)(C)O)C2 | 57.5 nM | 85% | 375 nM | 49% | –
CN(C)[C@]1(c2ccccc2)CC[C@]2(CC1)CC(=O)N(CCC(C)(C)C(=O)Nc1cnc(C(F)(F)F)nc1)C2 | 7.7 nM | 101% | 64.5 nM | 87% | –
c1ccc(CN2CCC3(CCC(c4cccs4)(N4CCC4)CC3)C2)cc1 (stereo not drawn) | – | – | – | – | Ki (human μ opiate receptor; [1]): 66.5 nM; % inhibition (μ) [1 μM] (human μ opiate receptor): 83%; Ki (ORL1 receptor; [2]): 36.5 nM; % inhibition (ORL1) [1 μM] (ORL1 receptor): 59.5%
CN(C)C1(c2cnccn2)CCC2(CC1)CC(=O)N(CC(C)(C)C(N)=O)C2 (stereo not drawn) | 975 nM | 59% | 750 nM | 10% | –
CN(C)C1(c2cccs2)CCC2(CCN(Cc3ccc(F)s3)C2)CC1 (stereo not drawn) | – | – | – | – | Ki (human μ opiate receptor; [1]): 1.03 nM; % inhibition (μ) [1 μM] (human μ opiate receptor): 100%; Ki (ORL1 receptor; [2]): 0.65 nM; % inhibition (ORL1) [1 μM] (ORL1 receptor): 97.5%
COCCCNC(=O)CCN1C[C@]2(CC[C@@](c3ccccc3)(N(C)C)CC2)CC1=O | 70 nM | 90% | 330 nM | 18% | –
CNC(=O)C(C)(C)CN1C[C@]2(CC[C@@](c3ccccc3)(N(C)C)CC2)CC1=O | 160 nM | 85% | 145 nM | 51% | –
CN(C)[C@]1(c2ccccn2)CC[C@]2(CC1)CC(=O)N(CC(=O)OC(C)(C)C)C2 | 8.6 nM | 99% | 36 nM | 79% | –
CN(C)C1(C(=O)c2ccccc2)CCC2(CCN(Cc3ccccc3)C2)CC1 (stereo not drawn) | – | – | – | – | % inhibition (μ) [1 μM] (human μ opiate receptor): 81.5%; % inhibition (ORL1) [1 μM] (ORL1 receptor): 54.5%
Cis-3-[8-Dimethylamino-8-(3-methoxy-propyl)-3-oxo-2-azaspiro[4.5]decan-2-yl]-propionamide | – | 15% | – | 12% | –
CN(C)[C@]1(c2ccccc2)CC[C@]2(CC1)CC(=O)N(CC(C)(C)C(=O)O)C2 | 430 nM | 66% | 440 nM | 36% | –
CN(C)[C@]1(c2ccccc2)CC[C@]2(CC1)CC(=O)N(CCC(C)(C)C(=O)NCc1ccncn1)C2 | 85.5 nM | 90% | 220 nM | 54% | –
CN(C)C1(c2cccs2)CCC2(CCN(Cc3ccncn3)C2)CC1 (stereo not drawn) | – | – | – | – | Ki (human μ opiate receptor; [1]): 15 nM; % inhibition (μ) [1 μM] (human μ opiate receptor): 96.5%; Ki (ORL1 receptor; [2]): 13 nM; % inhibition (ORL1) [1 μM] (ORL1 receptor): 79.5%
COCCNC(=O)C(C)(C)CN1CC2(CCC(c3ccccc3)(N(C)C)CC2)CC1=O (stereo not drawn) | 87.5 nM | 68% | 79.5 nM | 73% | –
CN[C@]1(c2ccccc2)CC[C@]2(CC1)CC(=O)N(CC(C)(C)C(N)=O)C2 | 755 nM | 53% | 525 nM | 25% | –
CN1CCC(CC(=O)N2CCC3(CCC(c4ccccc4)(N(C)C)CC3)C2)CC1 (single isomer, unassigned) | – | – | – | – | Ki (human μ opiate receptor; [1]): 104 nM; % inhibition (μ) [1 μM] (human μ opiate receptor): 79%; Ki (ORL1 receptor; [2]): 185 nM
COc1cccc(CCC(=O)N2CCC3(CCC(c4ccccc4)(N(C)C)CC3)C2)c1 (stereo not drawn) | 5.1 nM | 102% | 28 nM | 82% | –
Trans-2,2-Dimethyl-3-(8-methylamino-3-oxo-8-pyridin-2-yl-2-azaspiro[4.5]decan-2-yl)-propionamide | – | 22% | – | 5% | –

Compound | Ki (human μ opiate receptor; read-out: MOP Ki) | MOP % Inhibition @1 μM (human μ opiate receptor) | Ki (ORL1 receptor; read-out: ORL1 Ki) | ORL1 % Inhibition @ 1 μM (ORL1 receptor) | other results
CN(C)[C@]1(c2ccccc2)CC[C@]2(CC1)CC(=O)N(CC(=O)NCc1ccncc1)C2 | 52 nM | 94% | 46.5 nM | 79% | –
CN(C)[C@]1(c2ccccc2)CC[C@@]2(CC1)CC(=O)N(c1cnccn1)C2 | 1540 nM | – | 345 nM | – | –
CN(C)[C@]1(c2ccccc2)CC[C@]2(CC1)CC(=O)N(CC(=O)NCc1ccncn1)C2 | 85.5 nM | 94% | 71 nM | 74% | –
Cc1nccnc1C(=O)NCCCN1C[C@]2(CC[C@@](c3ccccc3)(N(C)C)CC2)CC1=O | 36 nM | 90% | 390 nM | 34% | –
cis-4-(8-Dimethylamino-3-oxo-8-pyridin-2-yl-2-azaspiro[4.5]decan-2-yl)-butyric acid methyl ester | 130 nM | 77% | 350 nM | 47% | –
COC(=O)C(C)(C)CN1C[C@]2(CC[C@@](c3ccccn3)(N(C)C)CC2)CC1=O | 9.8 nM | 100% | 23 nM | 84% | –
cis-2-(8-Dimethylamino-3-oxo-8-pyridin-2-yl-2-azaspiro[4.5]decan-2-yl)-acetic acid hydrochloride | 5960 nM | 13% | – | −3% | –
CNC(=O)C(C)(C)NC(=O)CN1C[C@]2(CC[C@@](c3ccccc3)(N(C)C)CC2)CC1=O | 210 nM | 77% | 780 nM | 32% | –
COCCCNC(=O)CN1C[C@]2(CC[C@@](c3ccccc3)(N(C)C)CC2)CC1=O | 33 nM | 88% | 42 nM | 65% | –
COC(=O)CN1C[C@]2(CC[C@@](c3ccccc3)(N(C)C)CC2)CC1=O | 29.5 nM | 96% | 24.5 nM | 80% | –
CN(C)[C@]1(c2ccccc2)CC[C@]2(CC1)CC(=O)N(CCC1(C(N)=O)CCOCC1)C2 | 51 nM | 97% | 20.5 nM | 96% | –
CN(C)C1(c2cccs2)CCC2(CCN(c3ccccc3)C2)CC1 (stereo not drawn) | – | – | – | – | Ki (human μ opiate receptor; [1]): 2.8 nM; % inhibition (μ) [1 μM] (human μ opiate receptor): 100%; Ki (ORL1 receptor; [2]): 8.35 nM; % inhibition (ORL1) [1 μM] (ORL1 receptor): 94%
CN(C)C1(c2ccccc2)CCC2(CCN(C(=O)c3ccccn3)C2)CC1 (stereo not drawn) | – | – | – | – | Ki (human μ opiate receptor; [1]): 160 nM; % inhibition (μ) [1 μM] (human μ opiate receptor): 70.5%; Ki (ORL1 receptor; [2]): 220 nM; % inhibition (ORL1) [1 μM] (ORL1 receptor): 37.5%
CN(C)[C@]1(c2ccccc2)CC[C@]2(CC1)CC(=O)N(CCC(C)(C)C(=O)Nc1ccccc1)C2 | 5.4 nM | 98% | 23 nM | 83% | –
CN(C)C1(c2ccccc2)CCC2(CCN(C(=O)CCCc3cccnc3)C2)CC1 (stereo not drawn) | 11.9 nM | 99% | 23 nM | 81% | –
CN(C)[C@]1(c2ccccc2)CC[C@]2(CC1)CC(=O)N(CCC(C)(C)C(=O)N1CCS(=O)(=O)CC1)C2 | 21 nM | 89% | 150 nM | 56% | –
Cis-4-[8-Dimethylamino-8-(3-methoxy-propyl)-3-oxo-2-azaspiro[4.5]decan-2-yl]-butyramide 2,2,2-trifluoro acetate | 5900 nM | 11% | – | −2% | –
Cc1nccc(CNC(=O)C(C)(C)CCN2C[C@]3(CC[C@@](c4ccccc4)(N(C)C)CC3)CC2=O)n1 | 52.5 nM | 88% | 175 nM | 67% | –
COc1cnc(N2C[C@]3(CC[C@](c4ccccc4)(N(C)C)CC3)CC2=O)cn1 | 2000 nM | – | 255 nM | – | –

Like-named read-outs stand apart in the source and are kept apart here.
